Assay results: ChEMBL document CHEMBL4038316, “Enantioselective Synthesis and in Vivo Evaluation of Regioisomeric Analogues of the Antimalarial Arterolane” (J Med Chem, 2017)

Legend:
Format in all cases: functional
Plasmodium berghei [1] = experiment: Antiplasmodial activity against Plasmodium berghei infected in Swiss Webster mouse assessed as cure rate at 6 mg/kg/day administered for 4 days via oral gavage starting at 1 hr post infection measured after 30 days relative to control
Plasmodium berghei [2] = experiment: Antiplasmodial activity against Plasmodium berghei infected in Swiss Webster mouse assessed as cure rate at 80 mg/kg/day administered for 1 day via oral gavage starting at 1 hr post infection measured after 30 days relative to control
Plasmodium berghei [3] = experiment: Antiplasmodial activity against Plasmodium berghei infected in Swiss Webster mouse assessed as cure rate at 40 mg/kg/day administered for 1 day via oral gavage starting at 1 hr post infection measured after 30 days relative to control

NC(=O)CNC(=O)C[C@@H]1CCC[C@]2(C1)OOC1(O2)C2CC3CC(C2)CC1C3 (some centres undefined)
Activity (Plasmodium berghei [1]): 0%

O=C(C[C@@H]1CCC[C@]2(C1)OOC1(O2)C2CC3CC(C2)CC1C3)N1CCCCC1 (some centres undefined)
Activity (Plasmodium berghei [1]): 0%

c1cc([C@H]2CC[C@]3(CC2)OO[C@]2(O3)C3CC4CC(C3)CC2C4)ccc1OCCN1CCOCC1 [ARTEFENOMEL]
Activity (Plasmodium berghei [2]): 100%
Activity (Plasmodium berghei [3]): 100%
